Amino acid sequences for entries named in this document (tags omitted).
Desmoglein-3 (Homo sapiens), P32926, UniProt P32926, whole entry, looked up: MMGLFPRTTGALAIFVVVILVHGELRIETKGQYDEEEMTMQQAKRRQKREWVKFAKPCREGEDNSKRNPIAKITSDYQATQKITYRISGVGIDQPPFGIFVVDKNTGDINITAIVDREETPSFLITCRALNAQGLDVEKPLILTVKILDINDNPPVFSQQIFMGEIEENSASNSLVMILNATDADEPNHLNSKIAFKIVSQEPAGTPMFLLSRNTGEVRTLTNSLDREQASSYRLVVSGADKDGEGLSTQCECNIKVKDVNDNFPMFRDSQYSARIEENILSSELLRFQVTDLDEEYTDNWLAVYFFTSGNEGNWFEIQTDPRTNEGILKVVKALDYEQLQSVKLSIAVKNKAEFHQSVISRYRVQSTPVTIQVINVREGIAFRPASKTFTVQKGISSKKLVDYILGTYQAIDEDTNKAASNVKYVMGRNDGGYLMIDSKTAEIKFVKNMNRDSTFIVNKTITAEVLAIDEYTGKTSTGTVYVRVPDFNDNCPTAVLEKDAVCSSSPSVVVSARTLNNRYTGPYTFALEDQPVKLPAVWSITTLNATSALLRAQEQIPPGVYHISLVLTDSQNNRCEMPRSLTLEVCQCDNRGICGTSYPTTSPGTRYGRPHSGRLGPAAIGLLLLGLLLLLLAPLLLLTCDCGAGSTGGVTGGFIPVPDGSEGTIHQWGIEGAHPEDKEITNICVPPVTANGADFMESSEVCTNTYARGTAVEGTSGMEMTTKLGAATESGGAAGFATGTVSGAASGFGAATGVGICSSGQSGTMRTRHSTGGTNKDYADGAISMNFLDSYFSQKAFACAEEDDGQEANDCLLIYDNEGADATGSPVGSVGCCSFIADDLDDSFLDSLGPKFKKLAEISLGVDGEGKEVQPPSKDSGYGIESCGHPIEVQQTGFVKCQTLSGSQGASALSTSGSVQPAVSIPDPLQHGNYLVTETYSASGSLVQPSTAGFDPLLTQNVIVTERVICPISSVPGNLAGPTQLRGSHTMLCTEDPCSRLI

# Rce1 inh = yeast Rce1p protease inhibitors, primary screen, biochemical, fluorescence, cell-free homogeneous; CAAX prenyl protease 2 (Saccharomyces cerevisiae (strain ATCC 204508 / S288c)), Q03530; yeast membranes, quenched prenylated peptide cleavage fluorescence; calls only; 290,000 tested, 0.27% active;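 active = fall in fluorescence gain of 50% or more versus controls, with final raw signal at or below 3038400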;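 also: plate controls were neutral control wells for no effect and wells lacking membranes for full effect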
# DSG3 Ab inh = inhibitors of pemphigus antibody binding to DSG3, primary screen, biochemical, bead-based, flow cytometry, scFv-GFP; Desmoglein-3 (Homo sapiens), P32926; DSG3-coupled beads, scFv-anti-DSG3-GFP binding; active compounds read low; binding (percent of control), % at 10 µM; 310,000 tested, 0.48% active;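 active = binding more than 3 SD below its plate's average and above zero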;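 also: hits lower antibody fragment binding to DSG3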
# Tb MetRS inh = T. brucei MetRS inhibitors, primary screen, biochemical, luminescence; 360,000 tested, 0.4% active; methionyl-tRNA synthetase (Trypanosoma brucei brucei); inhibition, % at 11.9 µM; purified T. brucei MetRS, ATP depletion, Kinase-Glo luminescence;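 active = inhibition above a per-plate cutoff of the control wells' mean inhibition plus 3 SD, cut at about 5.5% in these data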;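 also: 0% = DMSO wells median and 100% = median of wells with control inhibitor compound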
#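 Material – parasite MetRS enzyme · Medium – HEPES-MgCl2-KCl buffer plus DTT, spermine, BSA, pyrophosphatase · Reagent – ATP, methionine and E. coli bulk tRNA substrates · Times – 15 min enzyme-compound preincubation, 2 h reaction, 10 min detection, 25 °C · Measured by – luminescence of leftover ATP · Evaluation – percent inhibition relative to median high and low control wells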
# UUG fidelity = alters start codon recognition fidelity in yeast | S. cerevisiae UUG-firefly luciferase reporter, luminescence/redox ratio | activity score, % at 18.7 µM | hit rate 0.13% among 350,000 | AID 602363;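 active means replicate mean at a twofold rise or more, about +100% in these data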;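 further: firefly luciferase made from a UUG start codon reports start codon fidelity; reporter light over untreated wells divided by growth signal over untreated wells; some hits fall short of that in this replicate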
# Arr AP2 block = inhibitors of beta-arrestin/AP2 binding, primary screen, biochemical, GPCR trafficking, flow cytometry; beta-arrestin 1 C-terminal peptide binding to AP2 beta2-adaptin appendage (human); FITC-arrestin peptide / GST-AP2 beads; AP2 beta2 appendage carries R879A mutation; inhibition, % at 10 µM; 340,000 tested, 0.31% active;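 active = inhibition above a set limit, near 3 SD of compounds lacking own fluorescence, cut at about 54% in these data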;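 also: plate controls were DMSO wells for no effect and 5 µM unlabelled arrestin peptide for full effect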
#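 System: GST-AP2 R879A glutathione beads; medium: PBS, Tween 20 0.05%, BSA 0.1%; reagent: fluorescein-tagged arrestin peptide at 50 nM final; schedule: pre-incubation 12 min, peptide binding 1 h, room temperature; detection: flow cytometry, FL1 (488/535 nm); read-out: inhibition as reduced fluorescein signal on beads, percent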
# Numbers without * were called inactive; i = inactive; . = not tested or not shown; + = active, no number. Rows were chosen to be rich in hits. Some 1.2% of all compounds tested hit in one or more screens of this group.
Rce1 inh	DSG3 Ab inh	Tb MetRS inh	UUG fidelity	Arr AP2 block	Compound
i	67.6*	-0.8	-13.4	-9.6	COc1ccc(CNC(=O)c2ccc(Cl)c(NC3=NC4CS(=O)(=O)CC4S3)c2)cc1 (stereo not given)
i	36.3*	-1.5	-26.7	19.9	CCn1c(CSc2nnc3ccccn23)nc2cc(C(=O)O)ccc21
i	59.8*	0.7	-14.5	-13.6	CC(=O)c1ccc(N2CCN(C(=S)Nc3cccc(Cl)c3)CC2)cc1
+	104.1	-0.4	-7.5	-3.2	CC1(c2nnc(-c3cccc(Cl)c3)o2)CC(c2cccc(F)c2)=NO1 (stereo not given)
i	82.1*	-1.8	-12.6	4.4	Cc1cnc(NC(=O)CSc2nnc(COc3c(C)cccc3C)o2)s1
i	.	0.1	.	9.6	Cc1cnc(NC(=O)CSc2nnc(COc3ccccc3)o2)s1
.	.	.	-8.7	.	C[C@@H]1CN([C@@H](C)CO)C(=O)c2cc(NS(C)(=O)=O)ccc2O[C@@H](C)CCCCO[C@@H]1CN(C)C(=O)Nc1ccccc1
i	102.7*	-0.2	.	-6.0	COCCNC(=O)CSc1ncnc2sc(-c3ccccc3)cc12
i	99.5	0.0	-14.2	14.4	Cc1ccc(C(=O)Cn2nnc3ccccc32)cc1
i	13.0*	0.2	8.6	30.6	O=C(Cn1nnc2ccccc21)c1ccc(Br)cc1
i	82.8*	-0.4	-9.4	3.7	O=C(Nc1ccc(-c2cn3c(n2)SCC3)cc1)c1ccc2c(c1)OCO2
i	74.3*	-0.6	-17.5	14.6	CCOc1cc(NC(=O)c2ccccn2)c(OCC)cc1NC(=O)c1cccc(C)c1
i	75.7*	-1.7	-8.4	13.2	O=S(=O)(NCc1ccccc1)c1ccc(S(=O)(=O)N(Cc2ccccn2)Cc2ccco2)cc1
i	102.8*	0.1	.	-3.0	Cc1c(NC(=O)CN2c3ccccc3CC2C)c(=O)n(-c2ccccc2)n1C (stereo not given)
.	95.8	-0.3	6.5	4.9	Cc1c(NC(=O)CN2CC(C)OC(C)C2)c(=O)n(-c2ccccc2)n1C (stereo not given)
.	.	.	4.9	.	CNC[C@@H]1OCCCC[C@@H](C)Oc2ccc(NS(=O)(=O)c3ccccc3)cc2C(=O)N([C@@H](C)CO)C[C@H]1C
.	72.9*	-0.2	0.3	9.6	O=C(CN1CCN(c2ccc(O)cc2)CC1)Nc1ccc(S(=O)(=O)N2CCCC2)cc1
i	102.0	-0.8	-9.1	24.4	O=C(CN1CCCCC1)Nc1ccc(S(=O)(=O)N2CCCCCC2)cc1
.	.	.	8.2	.	Cc1ccccc1S(=O)(=O)N1C[C@H](O)COC[C@H]2O[C@H](CC(=O)N3CCOCC3)CC[C@@H]21
.	.	.	2.7	.	CC(C)C#Cc1ccc2c(c1)O[C@H](CN(C)C(=O)c1ccccn1)[C@H](C)CN([C@H](C)CO)S2(=O)=O
+	92.8	-1.1	-4.7	8.0	CCCN(CCC)CCNC(=O)c1cc2c(-c3ccc(Cl)cc3)nn(C)c2s1
i	99.4	-0.8	.	9.0	CCN(CC)CCNC(=O)c1cc2c(-c3cccc(OC)c3)nn(C)c2s1
+	98.8	-0.6	1.7	12.9	COCCCNC(=O)c1cc2c(-c3cccc(OC)c3)nn(C)c2s1
+	92.4	1.2	13.8	17.9	CCCCN(CC)CCNC(=O)c1cc2c(-c3ccc(Cl)cc3)nn(C)c2s1
+	91.2	-0.3	.	-3.0	CCCN(CCC)CCNC(=O)c1cc2c(-c3ccccc3F)nn(C)c2s1
i	116.8	0.2	10.8	-0.8	CCN(CC)CCNC(=O)c1cc2c(-c3ccc(Cl)cc3)nn(C)c2s1
.	.	.	7.7	.	Cc1noc(C)c1S(=O)(=O)Nc1ccc2c(c1)C(=O)N([C@H](C)CO)C[C@@H](C)[C@H](CN(C)Cc1ccc(Cl)c(Cl)c1)OCCCC[C@@H](C)O2
.	.	.	8.3	.	Cc1ccc(S(=O)(=O)Nc2ccc3c(c2)C(=O)N([C@@H](C)CO)C[C@H](C)[C@H](CN(C)C(=O)c2ccncc2)OCCCC[C@H](C)O3)cc1
i	103.1	-1.2	-13.2	24.7	COc1cc(C(=O)Nc2cccc(-c3nc4ncccc4o3)c2C)cc(OC)c1OC
i	79.9*	-0.7	-8.1	0.9	COc1cc(C(=O)Nc2cccc(-c3nc4cc(C)ccc4o3)c2C)cc(OC)c1OC

# Part of the list above in another layout.
O=C(CN1CCCCC1)Nc1ccc(S(=O)(=O)N2CCCCCC2)cc1
  Rce1 inh: i	DSG3 Ab inh: 102.0	Tb MetRS inh: -0.8	UUG fidelity: -9.1	Arr AP2 block: 24.4

O=C(CN1CCN(c2ccc(O)cc2)CC1)Nc1ccc(S(=O)(=O)N2CCCC2)cc1
  Rce1 inh: .	DSG3 Ab inh: 72.9*	Tb MetRS inh: -0.2	UUG fidelity: 0.3	Arr AP2 block: 9.6

CC(C)C#Cc1ccc2c(c1)O[C@H](CN(C)C(=O)c1ccccn1)[C@H](C)CN([C@H](C)CO)S2(=O)=O
  Rce1 inh: .	DSG3 Ab inh: .	Tb MetRS inh: .	UUG fidelity: 2.7	Arr AP2 block: .

O=C(Cn1nnc2ccccc21)c1ccc(Br)cc1
  Rce1 inh: i	DSG3 Ab inh: 13.0*	Tb MetRS inh: 0.2	UUG fidelity: 8.6	Arr AP2 block: 30.6

# The listing continues.
Rce1 inh	DSG3 Ab inh	Tb MetRS inh	UUG fidelity	Arr AP2 block	Compound
i	99.7	-0.3	6.6	33.9	CCN(CC(=O)Nc1ccccc1C(F)(F)F)C(=O)COc1cccc2c1OC(C)(C)C2
i	76.7*	-0.7	-9.8	20.7	CC1(C)Cc2cccc(OCC(=O)Nc3ccccc3C(F)(F)F)c2O1
i	112.3	-0.7	-2.5	-6.0	CN(Cc1cc2ccccc2[nH]c1=O)S(=O)(=O)c1ccccc1
i	54.2*	-0.3	-12.3	27.1	CN(Cc1cc2ccccc2[nH]c1=O)S(C)(=O)=O
+	106.4	0.8	-3.0	-14.6	CC(=O)Nc1cc(C(F)(F)F)ccc1Oc1cccc(Br)c1
.	.	.	-12.5	.	O=C(N[C@@H]1CC[C@H](CC(=O)N2CCOCC2)O[C@H]1CO)c1ccc2c(c1)OCO2
i	87.8*	-0.2	-5.1	6.1	CCOC(=O)C1=C(N)n2c(s/c(=C\c3cccnc3)c2=O)=C(C(=O)OC)C1c1cccnc1 (stereo not given)
.	.	.	7.8	.	O=C(c1ccccn1)N1CC[C@H]2[C@H](CO)Nc3ccc(-c4ccccc4)cc3[C@H]21
+	.	-0.7	-10.2	1.8	COc1ccccc1-c1cc(C(F)(F)F)n2ncc(S(=O)(=O)c3ccccc3)c2n1
+	102.9	-1.1	-18.4	24.9	O=S(=O)(c1ccccc1)c1cnn2c(C(F)(F)F)cc(-c3ccc(F)cc3)nc12
i	98.5	0.3	2.7	-11.5	O=S(=O)(c1ccccc1)c1cnn2c(C(F)(F)F)cc(-c3ccccc3)nc12
i	113.7	-1.2	-19.6	5.5	CN(C)CCCN1C(=O)c2cc3ccccc3cc2C1=O
i	73.5*	-0.2	.	13.3	O=C(CCCCCN1C(=O)c2cccc3cccc(c23)C1=O)NCCO
+	92.5	0.6	-20.6	-15.6	CN(C)CCCN1C(=O)c2cccc3cccc(c23)C1=O
i	46.6*	-0.7	.	12.6	O=C(CCCN1C(=O)c2cccc3cccc(c23)C1=O)N1CCN(c2ccccc2)CC1
.	.	.	28.5	.	CCC(=O)N1[C@@H]2CN(C(=O)CC(F)(F)F)c3ccccc3[C@@H]2[C@@H]1CO
.	78.6*	-0.9	.	.	CCCCCC(=O)N1C[C@@H](O)[C@H](n2cc(-c3ccc(F)cc3)nn2)C[C@@H]1c1ccc(OC)cc1

# Screens from PubChem BioAssay.
